This passage reports Kd and fold reduction of the affinity against the wild type proteins results from PMC2897767, “Two Distinct Mechanisms for Actin Capping Protein Regulation—Steric and Allosteric Inhibition” (PLoS Biology, 2010).

Values joined by “and” are separate entries in the source; they are usually repeats but may differ in a detail not shown here. Equal entries are not always repeated. Where two headings read alike, the source gives them in different places.

Assay [1] concerns the target actin filament barbed end (Oryctolagus cuniculus) (UniProt P68135). The conditions noted are these: cited from earlier work.
For assay [2] the target is unchanged. The conditions noted are these: cited from earlier work. This is another data set of the same source.
For assay [3], the target named is V-1 D44R (human) (UniProt P58546). The assay is described as follows: SPR; GST-fusion protein (GST-V-1, GST-CA or GST-CD) immobilised on a CM5 chip via anti-GST antibodies (up to 200 RU), CP perfused at 20 µl/min; 20°C; 50 mM KCl, 1 mM MgCl2, 0.005% Tween-20, 10 mM imidazole pH 7.0; 1:1 fit, KD from the kinetic rate constants (steady state for several fast-dissociating mutants). (In general: In SPR one partner is held on a chip, and binding of the other changes the refractive index at the surface.)

In assay [4] the target is V-1 E78R (human) (UniProt P58546). The description is as above.

Usually Kd stands for the constant that tells how readily two partners part at equilibrium. Regarding “actin capping protein (CP) (from UniProt P13127)”, the Kd in assay [1] is 1 nM and 0.18 nM.

As to “actin capping protein (CP) (from UniProt P47753)”, the Kd in assay [2] was 38 nM. With “actin capping protein (CP), chicken α1/β1, CP_full (from UniProt P13127 1-286; P14315 1-277) (complex)”, the fold reduction of the affinity against the wild type proteins in assay [3] and in assay [4] was above 25 fold throughout.
